{"source": "patent US20100120678", "target": "T1, substrate peptide derived from the region spanning Y1173 in EGFR", "T1 chain": "TAENAEYLRVAPQ", "data": [{"protein": "His-tagged wildtype EGFR kinase domain (protein) MSYHHHHHHDYDIPTTENLYFQGAMGEAPNQALLRILKETEFKKIKVLGSGAFGTVYKGLWIPEGEKVKIPVAIKELREATSPKANKEILDEAYVMASVDNPHVCRLLGICLTSTVQLITQLMPFGCLLDYVREHKDNIGSQYLLNWCVQIAKGMNYLEDRRLVHRDLAARNVLVKTPQHVKITDFGLAKLLGAEEKEYHAEGGKVPIKWMALESILHRIYTHQSDVWSYGVTVWELMTFGSKPYDGIPASEISSILEKGERLPQPPICTIDVYMIMVKCWMIDADSRPKFRELIIEFSKMARDPQRYLVIQGDERMHLPSPTDSNFYRALMDEEDMDDVVDADEYLIPQQG", "values": [{"measurement": "KM of the kinase for the substrate peptide (continuous enzyme-coupled kinase assay)", "value": "the value of KM for the wildtype kinase domain and this substrate peptide was greater than 4 mM"}]}]}
